Amino acid sequences for entries named in this document (tags omitted). A change or cut given only in a name is not applied to a line headed by its entry.
UniProt P47900: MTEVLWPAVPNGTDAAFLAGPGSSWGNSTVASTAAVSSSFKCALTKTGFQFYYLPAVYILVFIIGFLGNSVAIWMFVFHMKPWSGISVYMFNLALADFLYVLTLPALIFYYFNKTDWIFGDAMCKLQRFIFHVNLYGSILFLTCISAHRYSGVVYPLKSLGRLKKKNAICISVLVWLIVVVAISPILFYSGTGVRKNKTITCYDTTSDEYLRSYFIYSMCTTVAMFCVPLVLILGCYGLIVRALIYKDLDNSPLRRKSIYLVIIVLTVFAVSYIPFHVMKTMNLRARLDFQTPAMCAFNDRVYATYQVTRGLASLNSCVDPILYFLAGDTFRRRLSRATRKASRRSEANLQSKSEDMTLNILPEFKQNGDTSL

According to ChEMBL document CHEMBL1138990, “Diadenosine and diuridine poly(borano)phosphate analogues: synthesis, chemical and enzymatic stability, and activity at P2Y1 and P2Y2 receptors” (J Med Chem, 2006):

Molecular target: P2Y purinoceptor 1 (Homo sapiens, UniProt P47900)
Assay: Activity against human P2Y1-GFP expressed in 1321N1 cells by intracellular calcium increase
Assay type: functional, cell-based
How it was run: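 hP2Y1-GFP (C-terminal tag) stably transfected into 1321N1 cells, which lack endogenous P2Y receptors; selected with 1 mg/mL G418. Cells grown in DMEM with 5% FCS under 10% CO2 at 37 °C on PLL-coated coverslips. Loaded with 2 µM Fura-2/AM for 30 min in NaHBS pH 7.4, then superfused at 37 °C with agonist for 1 min. Read-out is single-cell 340/380 nm fluorescence ratio; mean ± SD from ≥50 cells.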

EC50: 11 nM
SMILES: CSc1nc(N)c2ncn([C@@H]3O[C@H](COP(=O)(O)OP(=O)(O)O)[C@@H](O)[C@H]3O)c2n1
